Earlier results as cited in paper PMC3211136.

Protein sequences, listed by entry. Tags and fused reporters are not part of them. Residues count along the entry.
UniProt Q71F23, whole entry, looked up, tested part not stated: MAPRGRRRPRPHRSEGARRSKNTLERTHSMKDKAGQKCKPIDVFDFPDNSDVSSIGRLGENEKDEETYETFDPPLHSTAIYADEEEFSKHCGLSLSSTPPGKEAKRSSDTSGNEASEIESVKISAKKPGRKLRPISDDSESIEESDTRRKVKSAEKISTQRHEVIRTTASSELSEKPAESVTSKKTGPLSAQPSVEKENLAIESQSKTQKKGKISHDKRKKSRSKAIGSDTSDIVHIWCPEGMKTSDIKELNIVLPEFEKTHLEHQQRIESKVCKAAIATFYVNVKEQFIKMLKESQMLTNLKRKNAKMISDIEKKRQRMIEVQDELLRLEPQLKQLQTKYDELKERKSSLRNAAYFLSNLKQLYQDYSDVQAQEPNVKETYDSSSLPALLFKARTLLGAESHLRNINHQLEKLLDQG
UniProt P53350, 367-603: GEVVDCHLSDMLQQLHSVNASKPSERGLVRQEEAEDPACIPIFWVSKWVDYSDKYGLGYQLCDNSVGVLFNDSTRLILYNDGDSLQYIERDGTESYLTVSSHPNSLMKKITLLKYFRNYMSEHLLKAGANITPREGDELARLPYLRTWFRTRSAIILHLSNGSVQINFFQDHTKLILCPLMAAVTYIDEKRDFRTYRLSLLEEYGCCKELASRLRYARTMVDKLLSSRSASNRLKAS

Target: PBIP1 peptide (Homo sapiens) (UniProt Q71F23)

In the case of Plk1 PBD (from UniProt P53350), the Kd is listed as 450 nM.
